The record followed here is patent publication US7196110B2, “N-substituted tricyclic 3-aminopyrazoles as inhibitors for the treatment of cell proliferative disorders” (Janssen Phamaceutica N.V., priority 2002, dated 2007).

Sequences of proteins named here, by UniProt entry; tags and fusion partners are left off. Residues count along the entry.
UniProt P09619, 545-1106 limits assumed: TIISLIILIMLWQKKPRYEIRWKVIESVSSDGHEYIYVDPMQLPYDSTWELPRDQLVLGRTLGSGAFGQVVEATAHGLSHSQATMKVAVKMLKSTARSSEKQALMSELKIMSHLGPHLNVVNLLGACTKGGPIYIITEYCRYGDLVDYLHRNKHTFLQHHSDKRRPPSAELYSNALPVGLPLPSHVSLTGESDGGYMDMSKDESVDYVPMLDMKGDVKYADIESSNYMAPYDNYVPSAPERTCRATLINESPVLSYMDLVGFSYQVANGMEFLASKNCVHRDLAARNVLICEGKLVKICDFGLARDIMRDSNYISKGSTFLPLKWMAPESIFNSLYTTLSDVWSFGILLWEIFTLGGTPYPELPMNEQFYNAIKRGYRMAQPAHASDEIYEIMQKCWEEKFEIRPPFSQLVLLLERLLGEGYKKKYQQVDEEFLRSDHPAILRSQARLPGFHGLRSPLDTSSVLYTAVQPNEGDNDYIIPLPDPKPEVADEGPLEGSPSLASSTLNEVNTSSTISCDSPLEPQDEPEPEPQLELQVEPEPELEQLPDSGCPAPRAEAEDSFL

Molecules are shown by their SMILES.

The target of this assay is PDGF-receptor beta enzyme comprising the tyrosine kinase domain (Homo sapiens, UniProt P09619). Kind of assay: Inhibition of PDGF-receptor kinase activity (cell-free, PLC1 peptide, 33P Flashplate). The conditions noted are these: PDGF-R kinase activity. In kind it is biochemical.

Turning to `COc1cc2c(cc1OC)-c1n[nH]c(Nc3ccc(C)c(Nc4nccc(-c5cccnc5)n4)c3)c1C2`, the IC50 (as a rule, the point on the concentration scale where inhibition reaches its midpoint) amounted to 1100 nM. Where the note is “compound at 10 uM”, the “Percent Inhibition @ 10 uM” value is 72%.
